# Measurements reported in PubChem BioAssay AID1700 (The Scripps Research Institute Molecular Screening Center, 2009).
# The list shows a part of the results, in another mix than the full data. Calls of active or inactive are those of the source.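 Rule for the calls: active = inhibition above a per-plate limit of that plate's mean compound inhibition plus 3 SD (cut at about 60% in these data); inactive = the rest.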
# Test: suppression of KLF5 promoter-driven luciferase – DLD-1 cells, luminescence, primary screen (AID 1700);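 note: 0% = DMSO wells and 100% = LY294002 at 200 µM; higher means less KLF5 promoter-driven luciferase light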
# Conditions: DLD-1 KLF5 promoter-luciferase reporter, at 5 µM, hits give high values
row,SMILES,inhibition
1,O=P(Nc1nccs1)(Oc1ccccc1)Oc1ccccc1,inactive: -14.4%
2,O=P(Nc1nccs1)(c1ccccc1)c1nc2ccccc2s1 (centres undefined),inactive: -7.09%
3,CCOP1(=S)c2c(C)nn(CCC#N)c2N=C(c2ccccc2F)N1C (centres undefined),inactive: -4.15%
4,CS(=O)(=O)c1cc([N+](=O)[O-])c2no[n+]([O-])c2c1,inactive: -5.51%
5,O=C(O)COc1ccc([As](=O)(O)O)cc1[N+](=O)[O-],inactive: -38.5%
6,Nc1ccccc1[As](=O)(O)c1ccccc1,inactive: -26.2%
7,ClCCSc1nnc(-c2cccnc2)o1,inactive: -8.47%
8,CC(C)c1ccc(OP(=O)(Nc2ccccn2)Oc2ccccc2F)cc1 (centres undefined),inactive: -24%
9,O=[N+]([O-])c1cc([N+](=O)[O-])c(-c2ccn[nH]2)s1,inactive: -9.8%
10,CC(C)NC(=O)NP(=O)(Oc1ccccc1)Oc1ccccc1,inactive: 6.86%
11,CCN(CC)C(=S)SC(NC=O)C(Cl)(Cl)Cl (centres undefined),inactive: -17.6%
12,O=[As](O)(c1ccc(O)cc1)c1ccccc1O,inactive: -10.8%
13,C[As](=O)(O)c1cccc(C(=O)O)c1,inactive: -24.4%
14,Cc1ccc(OP(=O)(Nc2ccc([N+](=O)[O-])cn2)Oc2ccc(C)cc2)cc1,inactive: -20.5%
15,Cc1ccc2nc3c(c(C)c2c1)CC(C(Cl)Cl)S3 (centres undefined),inactive: -47.5%
16,COc1ccc(N/C(=N/P(=O)(N2CCOCC2)N2CCOCC2)N2CCOCC2)cc1,inactive: -31.8%
17,Cc1c2c(nc3ccccc13)SC(C(Cl)Cl)C2 (centres undefined),inactive: -3.41%

row,SMILES,inhibition
1,Cc1cc(=O)[nH]c(N[N+](=O)[O-])n1,inactive: -21.6%
2,O=C(OC1CN2CCC1CC2)C12CC3CC(CC(C3)C1)C2 (centres undefined),inactive: 1.91%
3,COc1cc(I)ccc1[As](=O)(O)O,inactive: -9.82%
4,COc1ccc2nc(NP(=O)(c3ccccc3)c3ccccc3)sc2c1,inactive: -31%
5,O=C(OC1CN2CCC1CC2)c1cccc([N+](=O)[O-])c1 (centres undefined),inactive: -12.2%
6,CCOC(=O)c1ccc(NC(=O)C(C)(CCl)SC)cc1 (centres undefined),inactive: -55.8%
7,CCC(C)N(CC(C)C)C(=S)SC(NC(C)=O)C(Cl)(Cl)Cl (centres undefined),inactive: 0.47%
8,COP1(=S)c2c(C)nn(CCC#N)c2N=C(c2ccc(F)cc2)N1C (centres undefined),inactive: 8.11%
9,O=C(Nc1ccncc1[N+](=O)[O-])c1ccc([N+](=O)[O-])cc1[N+](=O)[O-],inactive: -37.6%
10,O=C(COc1ccccc1)OC1CN2CCC1CC2 (centres undefined),inactive: 6.62%
11,CCOC(=O)Nc1cccc([As](=O)(O)O)c1,inactive: -0.44%
12,Cc1cc(SC(NC=O)C(Cl)(Cl)Cl)ncn1 (centres undefined),inactive: -24.9%
13,O=P(Nc1ccccn1)(c1cccc2ccccc12)c1cccc2ccccc12,inactive: -17.6%
14,O=[N+]([O-])c1ccc(Nc2ccc(Oc3ccc([N+](=O)[O-])cc3[N+](=O)[O-])cc2)c([N+](=O)[O-])c1,inactive: -20.8%
15,CCOC(=O)Nc1ccc([As](=O)(O)O)c(O)c1,inactive: -31.8%
16,Cc1cc(SC(NC(=O)c2ccccc2)C(Cl)(Cl)Cl)nc(C(C)C)n1 (centres undefined),inactive: -27.5%
17,CCCCOc1ccc(C(=O)NCC2(N3CCCCC3)CCCCC2)cc1OC,inactive: -7.33%
